# System: Escherichia coli
# Conditions: UB1005
sequence,measurement,value
GENTAMICIN,MIC,0.5 µg/mL

# Reference: ChEMBL document CHEMBL1151667, “Chlorochimaphilin: a new antibiotic from Moneses uniflora” (1996)
